molecular target: bovine cardiac myosin (Bos taurus, UniProt Q9BE39); test: Myosin activation assay (PK/LDH-coupled ATPase, bovine cardiac myofibrils); conditions: concentration at which the total response is increased by twenty percent

Sequences of proteins named here, by UniProt entry; tags and fusion partners are left off.
UniProt Q9BE39, whole entry: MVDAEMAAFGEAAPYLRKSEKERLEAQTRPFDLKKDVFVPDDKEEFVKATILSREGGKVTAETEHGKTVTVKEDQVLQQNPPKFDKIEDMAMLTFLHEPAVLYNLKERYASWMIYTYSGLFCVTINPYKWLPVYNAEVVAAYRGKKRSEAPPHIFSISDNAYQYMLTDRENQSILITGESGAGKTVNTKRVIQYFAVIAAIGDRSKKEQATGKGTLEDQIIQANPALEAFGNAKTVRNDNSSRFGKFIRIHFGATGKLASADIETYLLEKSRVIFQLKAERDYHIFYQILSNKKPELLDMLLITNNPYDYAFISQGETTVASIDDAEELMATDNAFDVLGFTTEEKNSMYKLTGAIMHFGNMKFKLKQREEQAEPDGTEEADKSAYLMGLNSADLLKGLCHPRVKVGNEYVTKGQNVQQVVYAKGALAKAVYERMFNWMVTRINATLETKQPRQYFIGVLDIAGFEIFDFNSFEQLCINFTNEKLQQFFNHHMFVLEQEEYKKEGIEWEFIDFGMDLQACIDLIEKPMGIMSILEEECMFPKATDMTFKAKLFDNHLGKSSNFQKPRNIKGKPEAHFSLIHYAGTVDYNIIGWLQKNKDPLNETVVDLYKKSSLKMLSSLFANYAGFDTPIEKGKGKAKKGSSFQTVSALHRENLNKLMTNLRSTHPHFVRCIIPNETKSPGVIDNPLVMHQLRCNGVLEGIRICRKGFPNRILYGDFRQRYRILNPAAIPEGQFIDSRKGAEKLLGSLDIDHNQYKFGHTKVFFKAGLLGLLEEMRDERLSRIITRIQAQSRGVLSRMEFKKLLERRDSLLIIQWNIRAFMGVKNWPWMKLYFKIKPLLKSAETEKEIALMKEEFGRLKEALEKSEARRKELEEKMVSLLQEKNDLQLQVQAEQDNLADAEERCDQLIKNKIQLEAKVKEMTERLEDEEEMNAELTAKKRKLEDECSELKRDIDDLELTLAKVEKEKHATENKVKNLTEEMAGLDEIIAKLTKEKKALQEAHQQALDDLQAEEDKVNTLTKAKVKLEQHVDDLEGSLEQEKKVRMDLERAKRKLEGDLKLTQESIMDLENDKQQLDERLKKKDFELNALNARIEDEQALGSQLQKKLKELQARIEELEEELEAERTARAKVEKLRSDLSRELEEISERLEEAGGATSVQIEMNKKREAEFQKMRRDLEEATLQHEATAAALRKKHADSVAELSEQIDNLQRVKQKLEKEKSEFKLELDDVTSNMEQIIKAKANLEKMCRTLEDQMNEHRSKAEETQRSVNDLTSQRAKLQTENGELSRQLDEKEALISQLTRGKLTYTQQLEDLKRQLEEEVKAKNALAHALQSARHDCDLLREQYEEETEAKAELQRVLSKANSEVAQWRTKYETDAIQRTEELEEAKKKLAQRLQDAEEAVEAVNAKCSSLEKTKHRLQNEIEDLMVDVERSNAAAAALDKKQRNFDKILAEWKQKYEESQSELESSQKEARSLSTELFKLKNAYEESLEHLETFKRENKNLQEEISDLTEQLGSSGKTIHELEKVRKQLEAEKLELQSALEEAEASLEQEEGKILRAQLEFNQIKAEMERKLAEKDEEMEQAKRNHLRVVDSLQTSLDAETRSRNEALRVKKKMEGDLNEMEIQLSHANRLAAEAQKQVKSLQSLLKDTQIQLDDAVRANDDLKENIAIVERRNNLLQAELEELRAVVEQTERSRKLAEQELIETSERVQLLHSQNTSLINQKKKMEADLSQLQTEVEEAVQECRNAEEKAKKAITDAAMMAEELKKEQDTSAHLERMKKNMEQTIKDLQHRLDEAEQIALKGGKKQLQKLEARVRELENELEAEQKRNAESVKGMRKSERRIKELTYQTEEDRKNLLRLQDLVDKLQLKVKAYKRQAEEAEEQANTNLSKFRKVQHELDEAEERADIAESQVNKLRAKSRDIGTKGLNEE
UniProt Q3SZE5, whole entry partner: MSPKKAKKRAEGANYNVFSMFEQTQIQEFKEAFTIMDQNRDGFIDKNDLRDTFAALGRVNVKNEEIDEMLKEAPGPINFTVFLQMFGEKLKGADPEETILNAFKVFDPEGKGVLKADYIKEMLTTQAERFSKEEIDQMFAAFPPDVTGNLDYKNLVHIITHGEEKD
UniProt P85100, whole entry partner: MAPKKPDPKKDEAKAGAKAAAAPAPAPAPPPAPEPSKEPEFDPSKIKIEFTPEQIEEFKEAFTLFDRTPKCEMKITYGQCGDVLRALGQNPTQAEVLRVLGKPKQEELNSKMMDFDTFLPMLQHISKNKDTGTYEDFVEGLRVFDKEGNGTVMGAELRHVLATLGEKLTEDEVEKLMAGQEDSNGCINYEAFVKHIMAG

Row | Compound | Myosin Activation (AC20)
1 | Cc1cc(C#N)ccc1S(=O)(=O)C(F)(F)C1CCN(C(=O)Nc2ccnnc2)CC1 | ++ (++ represents myosin activation value AC20 from 2 µM - 5 µM)
2 | C[C@@H](O)c1cc(NC(=O)N2CCC(C(F)(F)S(=O)(=O)c3cccc(F)c3)CC2)ccn1 | + (+ represents myosin activation value AC20 > 5 µM)
3 | Cn1cc(S(=O)(=O)C(C)(C)C2CCN(C(=O)Nc3ccncc3)CC2)cn1 | + (+ represents myosin activation value AC20 > 5 µM)
4 | Cn1cc(S(=O)(=O)C(C)(C)C2CCN(C(=O)Nc3ccc(F)nc3)CC2)c(C(F)(F)F)n1 | ++ (++ represents myosin activation value AC20 from 2 µM - 5 µM)
5 | Cn1nccc1S(=O)(=O)C(C)(F)C1CCN(C(=O)Nc2cccnc2)CC1 (centres unmarked) | + (+ represents myosin activation value AC20 > 5 µM)
6 | O=C(Nc1ccnnc1)N1CCC(C2(S(=O)(=O)c3ccc(C(F)(F)F)cc3)CCC2)CC1 | +++ (+++ represents myosin activation value AC20 < 2 µM)
7 | CC(F)(C1CCN(C(=O)Nc2ccnnc2)CC1)S(=O)(=O)c1ccc(OC(F)F)nc1 (centres unmarked) | +++ (+++ represents myosin activation value AC20 < 2 µM)
8 | Cn1nc(C(F)F)cc1S(=O)(=O)C(C)(C)C1CCN(C(=O)Nc2ccnc(F)c2)CC1 | +++ (+++ represents myosin activation value AC20 < 2 µM)
9 | Cc1nocc1NC(=O)N1CCC(C(C)(F)S(=O)(=O)c2cccc(F)c2)CC1 (centres unmarked) | + (+ represents myosin activation value AC20 > 5 µM)
10 | Cc1cc(C(F)(F)F)ccc1S(=O)(=O)C(F)(F)C1CCN(C(=O)Nc2ccnnc2)CC1 | ++ (++ represents myosin activation value AC20 from 2 µM - 5 µM)
11 | Cc1cc(NC(=O)N2CCC(C(C)(C)S(=O)(=O)c3cccc(F)c3)CC2)no1 | + (+ represents myosin activation value AC20 > 5 µM)
12 | O=C(Nc1ccnnc1)N1CCC(C2(S(=O)(=O)c3ccc(OC(F)(F)F)cc3)CC2)CC1 | +++ (+++ represents myosin activation value AC20 < 2 µM)
13 | CN(C)c1ncccc1S(=O)(=O)C(F)(F)C1CCN(C(=O)Nc2ccnnc2)CC1 | + (+ represents myosin activation value AC20 > 5 µM)
14 | O=C(Nc1ccnnc1)N1CCC(C(F)(F)S(=O)(=O)c2ccc(N3CCC3)nc2)CC1 | ++ (++ represents myosin activation value AC20 from 2 µM - 5 µM)
15 | CC(C)(C1CCN(C(=O)Nc2ccc(F)nc2)CC1)S(=O)(=O)c1cccc(F)c1 | ++ (++ represents myosin activation value AC20 from 2 µM - 5 µM)
16 | CC(C)(C1CCN(C(=O)Nc2ccon2)CC1)S(=O)(=O)c1ccc(C#N)cc1 | + (+ represents myosin activation value AC20 > 5 µM)
17 | O=C(Nc1ccnnc1)N1CCC(C(F)(F)S(=O)(=O)c2cccc(C(F)(F)F)c2)CC1 | ++ (++ represents myosin activation value AC20 from 2 µM - 5 µM)
18 | Cn1nccc1S(=O)(=O)C(C)(F)C1CCN(C(=O)Nc2ccon2)CC1 (centres unmarked) | + (+ represents myosin activation value AC20 > 5 µM)

Row | Compound | Myosin Activation (AC20)
19 | O=C(Nc1ccns1)N1CCC(C2(S(=O)(=O)c3ccc(OC(F)(F)F)cc3)CC2)CC1 | +++ (+++ represents myosin activation value AC20 < 2 µM)
20 | Cn1nccc1S(=O)(=O)C(C)(F)C1CCN(C(=O)Nc2ccnc(F)c2)CC1 (centres unmarked) | + (+ represents myosin activation value AC20 > 5 µM)
21 | CC(F)(C1CCN(C(=O)Nc2cccnc2)CC1)S(=O)(=O)c1cccc(F)c1 (centres unmarked) | ++ (++ represents myosin activation value AC20 from 2 µM - 5 µM)
22 | CC(C)(C1CCN(C(=O)Nc2cncc(F)c2)CC1)S(=O)(=O)c1cccc(F)c1 | ++ (++ represents myosin activation value AC20 from 2 µM - 5 µM)
23 | CC(C)(C1CCN(C(=O)Nc2cnns2)CC1)S(=O)(=O)c1cccc(F)c1 | +++ (+++ represents myosin activation value AC20 < 2 µM)
24 | CC(C)(C1CCN(C(=O)Nc2cncnc2)CC1)S(=O)(=O)c1cccc(F)c1 | + (+ represents myosin activation value AC20 > 5 µM)
25 | Cn1cc(S(=O)(=O)C(F)(F)C2CCN(C(=O)Nc3ccon3)CC2)c(C(F)F)n1 | + (+ represents myosin activation value AC20 > 5 µM)
26 | CC(C)(C1CCN(C(=O)Nc2ccc(F)nc2)CC1)S(=O)(=O)c1ccc(C(F)(F)F)nc1 | + (+ represents myosin activation value AC20 > 5 µM)
27 | CC(C)(C1CCN(C(=O)Nc2cnns2)CC1)S(=O)(=O)c1ccc(C(F)(F)F)cc1 | +++ (+++ represents myosin activation value AC20 < 2 µM)
28 | CC(F)(C1CCN(C(=O)Nc2cnns2)CC1)S(=O)(=O)c1ccc(C#N)cc1 (centres unmarked) | +++ (+++ represents myosin activation value AC20 < 2 µM)
29 | Cn1cc(S(=O)(=O)C(C)(F)C2CCN(C(=O)Nc3ccon3)CC2)c(Cl)n1 (centres unmarked) | + (+ represents myosin activation value AC20 > 5 µM)
30 | C[C@](F)(C1CCN(C(=O)Nc2ccon2)CC1)S(=O)(=O)c1ccc(OC(F)F)nc1 | +++ (+++ represents myosin activation value AC20 < 2 µM)
31 | CC(C)(C1CCN(C(=O)Nc2ccns2)CC1)S(=O)(=O)c1ccccc1Cl | ++ (++ represents myosin activation value AC20 from 2 µM - 5 µM)
32 | Cn1cc(S(=O)(=O)C(C)(C)C2CCN(C(=O)Nc3nnco3)CC2)c(C(F)F)n1 | + (+ represents myosin activation value AC20 > 5 µM)
33 | Cc1ncc(NC(=O)N2CCC(C(C)(C)S(=O)(=O)c3cn(C)nc3C(F)F)CC2)cn1 | + (+ represents myosin activation value AC20 > 5 µM)
34 | O=C(Nc1ccnnc1)N1CCC(C(F)(F)S(=O)(=O)c2ccccc2-n2cccn2)CC1 | + (+ represents myosin activation value AC20 > 5 µM)
35 | O=C(Nc1ccnnc1)N1CCC(C(F)(F)S(=O)(=O)c2cccc(F)c2)CC1 | ++ (++ represents myosin activation value AC20 from 2 µM - 5 µM)

From patent EP4847505A1, “4-METHYLSULFONYL-SUBSTITUTED PIPERIDINE UREA COMPOUNDS” (dated 2026)
